Values quoted from earlier work as cited in patent publication US10272045B2 (priority 2015, dated 2019).

Details: APL patients, metabolites; cited from earlier work

Compound: C[As](=O)(O)O
- mean estimated terminal elimination half-life: 32 h
